Assay results reported in ChEMBL document CHEMBL5233265, “Recent advances in the design and development of formyl peptide receptor 2 (FPR2/ALX) agonists as pro-resolving agents with diverse therapeutic potential” (Eur J Med Chem, 2021).

Tests used:
[1] = molecular target: T1, N-formyl peptide receptor 2 (Homo sapiens) (UniProt P25090); test: Agonist activity at human FPR2 expressed in HEK cells assessed as maximal calcium flux incubated for 40 mins by Fluo-4 staining based FLIPR assay relative to control; assay type: cell-based
T1 sequence (whole entry): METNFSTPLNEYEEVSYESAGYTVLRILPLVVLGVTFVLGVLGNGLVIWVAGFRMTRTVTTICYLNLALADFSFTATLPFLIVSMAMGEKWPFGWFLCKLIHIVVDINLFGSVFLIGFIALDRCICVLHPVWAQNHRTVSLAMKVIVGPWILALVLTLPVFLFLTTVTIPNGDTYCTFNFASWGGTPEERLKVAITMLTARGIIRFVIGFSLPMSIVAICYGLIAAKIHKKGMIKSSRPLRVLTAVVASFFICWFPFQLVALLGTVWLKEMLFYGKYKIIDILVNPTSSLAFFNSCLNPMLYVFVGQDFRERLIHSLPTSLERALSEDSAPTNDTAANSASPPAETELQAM

[2] = molecular target: T2, fMet-Leu-Phe receptor (Homo sapiens) (UniProt P21462); test: Agonist activity at human FPR1 transfected in HL-60 cells assessed as maximal intracellular calcium flux incubated for 30 mins by Fluo-4 AM dye based fluorometer analysis relative to control; assay type: cell-based; conditions: filed as agonist
T2 sequence (whole entry): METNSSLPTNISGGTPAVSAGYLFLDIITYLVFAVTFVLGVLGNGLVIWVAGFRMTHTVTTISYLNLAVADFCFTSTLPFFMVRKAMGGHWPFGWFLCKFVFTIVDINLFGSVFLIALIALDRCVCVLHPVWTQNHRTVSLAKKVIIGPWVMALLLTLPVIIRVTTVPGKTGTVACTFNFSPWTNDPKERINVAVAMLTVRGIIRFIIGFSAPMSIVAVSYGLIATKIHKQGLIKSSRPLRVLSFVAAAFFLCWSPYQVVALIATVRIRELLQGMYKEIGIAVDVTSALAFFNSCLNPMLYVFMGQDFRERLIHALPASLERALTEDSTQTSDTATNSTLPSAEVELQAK

| SMILES | Emax [1] [%] | Emax [2] [%] |
| --- | --- | --- |
| CC(C)C[C@H](NC(=O)Nc1ccc(Br)cc1F)C(=O)NCC(=O)O | 1 | – |
| COc1ccc(NC(=O)N[C@@H](Cc2ccc(C#N)cc2)C(=O)NCC2(c3ccc(O)cc3)CC2)cc1 | – | 120 |
| COc1ccc(NC(=O)N[C@@H](Cc2ccc(C#N)cc2)C(=O)NCC2(c3cccc(O)c3)CC2)cc1 | – | 100 |
